# Source: publication PMC9295256 (Journal of medicinal chemistry, 2021)
# Chains of the proteins cited; added tags and fusions are not shown. Residues count along the entry.
# UniProt P42676, 38-704: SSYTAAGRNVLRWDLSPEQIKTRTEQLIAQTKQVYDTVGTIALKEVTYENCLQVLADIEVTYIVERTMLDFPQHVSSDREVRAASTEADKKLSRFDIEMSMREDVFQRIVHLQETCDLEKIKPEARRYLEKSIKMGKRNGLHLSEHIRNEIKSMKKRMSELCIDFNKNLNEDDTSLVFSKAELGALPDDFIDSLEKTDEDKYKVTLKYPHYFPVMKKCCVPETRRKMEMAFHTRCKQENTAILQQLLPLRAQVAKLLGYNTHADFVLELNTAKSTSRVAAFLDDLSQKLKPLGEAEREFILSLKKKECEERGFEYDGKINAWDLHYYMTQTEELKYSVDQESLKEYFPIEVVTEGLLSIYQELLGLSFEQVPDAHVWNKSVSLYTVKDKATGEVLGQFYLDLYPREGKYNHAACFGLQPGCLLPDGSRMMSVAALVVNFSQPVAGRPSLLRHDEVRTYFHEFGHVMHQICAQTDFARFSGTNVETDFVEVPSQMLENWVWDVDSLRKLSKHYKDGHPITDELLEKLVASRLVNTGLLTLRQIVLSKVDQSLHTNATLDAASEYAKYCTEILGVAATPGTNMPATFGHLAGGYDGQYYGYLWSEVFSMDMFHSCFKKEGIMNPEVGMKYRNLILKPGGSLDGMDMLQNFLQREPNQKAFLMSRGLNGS
# Biological target: recombinant rat Nln (Rattus norvegicus, UniProt P42676)
# Assay: Nln activation, continuous quenched fluorescence substrate
# Type: biochemical
# Settings: 100% = normal enzyme turnover; mean of n = 4, 95% CI in parentheses
row,SMILES,"Amax, maximum % activation achieved (95% CI)"
1,"N[C@@H](Cc1c[nH]cn1)C(=O)NCCc1ccc(F)cc1 [Compound 4m, (S)-2-Amino-N-(4-fluorophenethyl)-3-(1H-imidazol-4-yl)-propanamide]",253.8 (231.2 to 278.9) %
2,"N[C@H](Cc1c[nH]cn1)C(=O)NCCc1ccc(F)cc1 [Compound 4n, (R)-2-Amino-N-(4-fluorophenethyl)-3-(1H-imidazol-4-yl)-propanamide]",353.8 (340.6 to 368.1) %
